Some targets named below: CYP2D6 (Homo sapiens (Human), UniProt P10635); 17β-HSD2 (Homo sapiens (Human), UniProt P37059); CYP1A2 (Homo sapiens (Human), UniProt P05177); CYP3A4 (Homo sapiens (Human), UniProt P08684); CYP2C9 (Homo sapiens (Human), UniProt P11712); CYP2B6 (Homo sapiens (Human), UniProt P20813); CYP2C19 (Homo sapiens (Human), UniProt P33261).
For data set [1], the target named is T1, 17β-HSD1 (Homo sapiens (Human), UniProt P14061). In words: 17β-HSD1 test assay (recombinant protein from Sf9 insect cells, 3H-estrone/NADPH). The settings on record: inhibitor 100 nM.
Data set [2] has as its target T1, 17β-HSD1.
A short description of data set [3]: Test for metabolic stability, liver microsomes. The settings on record: rat liver microsomes.
The subject of another data set is CaCo-2 cells. In words: CaCo-2 assay (transport experiments).

Sequences of proteins named here, by UniProt entry; tags and fusion partners are left off.
UniProt P10635, whole entry: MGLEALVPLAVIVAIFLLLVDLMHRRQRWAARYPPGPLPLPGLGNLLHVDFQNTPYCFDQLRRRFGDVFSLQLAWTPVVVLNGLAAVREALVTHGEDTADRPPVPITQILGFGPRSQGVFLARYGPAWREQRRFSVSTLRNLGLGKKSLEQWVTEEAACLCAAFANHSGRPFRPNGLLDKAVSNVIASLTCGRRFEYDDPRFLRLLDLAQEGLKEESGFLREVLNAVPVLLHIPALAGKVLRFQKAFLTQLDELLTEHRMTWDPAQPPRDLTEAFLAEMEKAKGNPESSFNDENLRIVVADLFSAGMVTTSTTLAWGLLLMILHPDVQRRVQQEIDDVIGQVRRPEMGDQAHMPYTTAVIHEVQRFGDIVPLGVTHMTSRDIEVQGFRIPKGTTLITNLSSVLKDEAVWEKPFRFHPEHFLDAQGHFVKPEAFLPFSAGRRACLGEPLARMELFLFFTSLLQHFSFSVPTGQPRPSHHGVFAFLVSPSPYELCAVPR
UniProt P37059, whole entry: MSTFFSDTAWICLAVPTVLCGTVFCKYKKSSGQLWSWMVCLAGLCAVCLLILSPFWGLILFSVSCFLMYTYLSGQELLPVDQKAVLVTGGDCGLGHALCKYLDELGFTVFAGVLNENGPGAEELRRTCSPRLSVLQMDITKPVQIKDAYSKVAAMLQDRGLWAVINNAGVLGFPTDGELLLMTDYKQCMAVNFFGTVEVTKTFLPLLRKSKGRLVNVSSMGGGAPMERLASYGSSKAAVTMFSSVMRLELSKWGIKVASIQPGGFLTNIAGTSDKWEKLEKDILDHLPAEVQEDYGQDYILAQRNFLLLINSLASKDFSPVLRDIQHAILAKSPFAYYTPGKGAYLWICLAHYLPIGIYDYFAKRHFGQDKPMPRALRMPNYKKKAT
UniProt P05177, whole entry: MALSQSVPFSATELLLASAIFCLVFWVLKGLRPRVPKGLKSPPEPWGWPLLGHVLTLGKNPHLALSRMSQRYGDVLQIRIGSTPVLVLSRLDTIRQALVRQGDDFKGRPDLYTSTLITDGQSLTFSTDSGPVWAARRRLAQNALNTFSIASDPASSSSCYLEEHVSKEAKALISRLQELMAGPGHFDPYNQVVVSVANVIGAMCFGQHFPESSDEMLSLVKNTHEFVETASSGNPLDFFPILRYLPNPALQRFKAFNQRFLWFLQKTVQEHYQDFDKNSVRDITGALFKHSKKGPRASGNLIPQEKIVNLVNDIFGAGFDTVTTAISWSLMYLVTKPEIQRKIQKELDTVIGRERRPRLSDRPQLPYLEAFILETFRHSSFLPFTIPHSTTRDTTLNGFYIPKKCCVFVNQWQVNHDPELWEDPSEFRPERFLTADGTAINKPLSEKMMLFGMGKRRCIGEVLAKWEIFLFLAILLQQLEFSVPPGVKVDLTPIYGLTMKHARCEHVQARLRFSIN
UniProt P08684, whole entry: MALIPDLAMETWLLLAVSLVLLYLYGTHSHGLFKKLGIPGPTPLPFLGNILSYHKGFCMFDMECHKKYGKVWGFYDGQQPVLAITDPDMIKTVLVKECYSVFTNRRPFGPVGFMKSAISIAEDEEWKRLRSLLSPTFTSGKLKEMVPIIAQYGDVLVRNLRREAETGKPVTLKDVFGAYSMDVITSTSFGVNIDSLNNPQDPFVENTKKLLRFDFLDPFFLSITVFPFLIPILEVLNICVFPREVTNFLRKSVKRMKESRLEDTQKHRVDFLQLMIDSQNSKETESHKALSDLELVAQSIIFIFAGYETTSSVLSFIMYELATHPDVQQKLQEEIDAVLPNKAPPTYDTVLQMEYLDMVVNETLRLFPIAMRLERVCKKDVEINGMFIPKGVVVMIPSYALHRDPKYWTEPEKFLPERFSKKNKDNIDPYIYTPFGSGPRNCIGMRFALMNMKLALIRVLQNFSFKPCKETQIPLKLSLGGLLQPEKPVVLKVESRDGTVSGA
UniProt P11712, whole entry: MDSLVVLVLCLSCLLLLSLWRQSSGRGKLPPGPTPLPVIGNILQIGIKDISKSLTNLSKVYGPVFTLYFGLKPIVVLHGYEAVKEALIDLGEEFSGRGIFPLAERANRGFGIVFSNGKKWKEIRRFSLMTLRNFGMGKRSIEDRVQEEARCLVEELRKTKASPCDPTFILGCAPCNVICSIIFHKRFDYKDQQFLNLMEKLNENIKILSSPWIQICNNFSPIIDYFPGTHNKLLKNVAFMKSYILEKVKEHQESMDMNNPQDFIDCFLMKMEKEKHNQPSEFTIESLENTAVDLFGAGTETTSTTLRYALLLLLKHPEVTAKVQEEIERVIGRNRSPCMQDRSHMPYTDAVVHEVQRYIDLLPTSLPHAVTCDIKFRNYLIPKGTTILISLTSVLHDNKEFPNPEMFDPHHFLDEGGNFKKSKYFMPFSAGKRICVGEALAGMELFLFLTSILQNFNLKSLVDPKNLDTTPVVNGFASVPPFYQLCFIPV
UniProt P20813, whole entry: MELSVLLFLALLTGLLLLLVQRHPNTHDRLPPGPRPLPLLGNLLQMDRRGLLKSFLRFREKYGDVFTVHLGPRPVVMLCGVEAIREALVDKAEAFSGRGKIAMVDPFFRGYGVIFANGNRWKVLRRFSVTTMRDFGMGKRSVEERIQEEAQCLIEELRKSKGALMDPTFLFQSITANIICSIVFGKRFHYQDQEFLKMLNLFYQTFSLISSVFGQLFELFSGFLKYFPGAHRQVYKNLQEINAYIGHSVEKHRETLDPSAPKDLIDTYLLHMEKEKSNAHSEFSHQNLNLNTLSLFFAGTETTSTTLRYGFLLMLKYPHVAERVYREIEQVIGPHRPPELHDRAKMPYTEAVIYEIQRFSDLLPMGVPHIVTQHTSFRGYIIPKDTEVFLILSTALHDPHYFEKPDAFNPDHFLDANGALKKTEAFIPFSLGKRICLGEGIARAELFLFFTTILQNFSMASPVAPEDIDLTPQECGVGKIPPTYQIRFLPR
UniProt P33261, whole entry: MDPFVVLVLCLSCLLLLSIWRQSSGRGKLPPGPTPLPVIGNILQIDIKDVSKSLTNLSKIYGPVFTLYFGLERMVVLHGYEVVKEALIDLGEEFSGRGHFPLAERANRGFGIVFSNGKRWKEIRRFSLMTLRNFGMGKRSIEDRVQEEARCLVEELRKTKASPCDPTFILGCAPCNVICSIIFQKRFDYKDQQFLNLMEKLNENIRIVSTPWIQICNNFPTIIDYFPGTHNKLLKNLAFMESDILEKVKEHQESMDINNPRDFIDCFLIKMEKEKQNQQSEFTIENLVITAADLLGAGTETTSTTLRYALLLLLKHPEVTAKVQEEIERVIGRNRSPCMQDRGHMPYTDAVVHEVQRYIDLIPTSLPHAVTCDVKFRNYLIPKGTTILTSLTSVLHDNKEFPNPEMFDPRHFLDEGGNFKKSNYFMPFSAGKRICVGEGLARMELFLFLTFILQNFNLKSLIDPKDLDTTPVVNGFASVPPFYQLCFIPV
UniProt P14061, whole entry: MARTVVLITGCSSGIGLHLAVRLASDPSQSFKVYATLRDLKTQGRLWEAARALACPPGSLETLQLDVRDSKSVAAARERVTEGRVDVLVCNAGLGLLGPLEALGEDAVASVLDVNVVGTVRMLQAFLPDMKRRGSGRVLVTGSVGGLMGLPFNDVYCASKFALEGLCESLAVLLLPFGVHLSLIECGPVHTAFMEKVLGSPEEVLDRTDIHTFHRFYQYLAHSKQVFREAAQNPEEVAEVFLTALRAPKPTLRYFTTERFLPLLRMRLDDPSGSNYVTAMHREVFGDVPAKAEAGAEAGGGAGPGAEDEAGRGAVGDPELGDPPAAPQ

Broadly, the IC50 is the midpoint of a concentration-inhibition curve. A low value points to higher potency.

On to `Cc1nnc(NS(=O)(=O)c2cccc(-c3c(O)ccc4cc(-c5cccc(O)c5)ccc34)c2)s1`, for which the IC50 was determined as 39.4 µM against CYP2D6; 0.195 µM on 17β-HSD2; 37.5 µM against CYP1A2; 2.25 µM against CYP3A4; 0.03 µM against 17β-HSD1 [2]; 0.03 µM at CYP2C9. For the same compound, the IC50 amounted to 13.6 µM against CYP2B6 and 8.83 µM on CYP2C19. Besides, on 17β-HSD1 [1], the “HSD1 100 nM (% inhibition)” value is 82.2%. Besides, the selectivity ratio at 17β-HSD1 [2] was found to be 6.5. Further, the “Half life” value in data set [3] came to 7.497 h. For the same compound, the “Intrinsic clearance (μl/min/mg protein)” value in data set [3] was determined as 10.3 μl/min/mg protein. The “Slope (−k)” value in data set [3] is −0.002. The “mass balance [% ± SD]” value in the data set on CaCo-2 cells turned out to be 23.0 ± 2.3%. In addition, in the data set on CaCo-2 cells (class in words), the Permeability result is reported as “moderate”. In the data set on CaCo-2 cells (initial donor concentration 50 μM), the “final basolateral concentration [μM ± SD]” value came out at 0.9 ± 0.08 µM.

Values taken from patent US8546392B2, “17Beta-hydroxysteroid dehydrogenase type 1 inhibitors for the treatment of hormone-related diseases” (Universitaet des Saarlandes, priority 2008, dated 2013).
